In assay [1] the target is T1, Peroxisome proliferator-activated receptor alpha (Homo sapiens, UniProt Q07869).
T1 sequence (Q07869 whole entry): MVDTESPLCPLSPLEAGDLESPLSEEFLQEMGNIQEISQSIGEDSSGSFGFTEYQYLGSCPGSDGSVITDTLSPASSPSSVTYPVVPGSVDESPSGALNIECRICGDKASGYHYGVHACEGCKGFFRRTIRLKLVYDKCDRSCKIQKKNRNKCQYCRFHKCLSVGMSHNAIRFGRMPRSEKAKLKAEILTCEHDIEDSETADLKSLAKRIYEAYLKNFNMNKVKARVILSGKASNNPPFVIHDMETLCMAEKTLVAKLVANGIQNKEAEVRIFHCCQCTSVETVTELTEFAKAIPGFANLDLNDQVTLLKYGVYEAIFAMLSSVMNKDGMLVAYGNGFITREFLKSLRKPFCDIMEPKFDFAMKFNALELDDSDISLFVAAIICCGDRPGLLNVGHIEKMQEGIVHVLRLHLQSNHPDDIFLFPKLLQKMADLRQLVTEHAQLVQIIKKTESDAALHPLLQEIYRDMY
Briefly: Displacement of fluorescein labeled ligand from PPARalpha receptor by fluorescence polarization assay. In general terms: Fluorescence polarisation rises when a labelled molecule tumbles more slowly, as on binding a larger partner.

For assay [2], the target named is T1, Peroxisome proliferator-activated receptor alpha. Briefly: Agonist activity at PPARalpha receptor expressed in HEK293 cells by GAL4 transactivation assay. Format: functional, cell-based.

A word on the IC50: it is the concentration at which inhibition is half-maximal. Low readings indicate inhibition by little substance, high ones a need for much substance. Broadly, the EC50 is the concentration at which the effect is half-maximal. Lower therefore signals greater potency. In assay [1], `Cc1oc(-c2ccccc2)nc1CCOc1ccc(C[C@H](Nc2ccccc2C(=O)c2ccccc2)C(=O)O)cc1` [FARGLITAZAR] yielded an IC50 of 2870 nM. The molecule also gave an EC50 in assay [2] of 321 nM.

The values are drawn from ChEMBL document CHEMBL1139149, “Discovery of tertiary aminoacids as dual PPARalpha/gamma agonists-I” (Bioorg Med Chem Lett, 2007).
